The experiment addresses T1, rat-alpha7-nAChR (Rattus norvegicus, UniProt Q05941).
T1 construct: expressed in transfected cells
Briefly: functional FLIPR assay, alpha7 nAChR stably expressed in GH4C1 cells. The class given is cell-based. The conditions noted are these: Alpha 7 EC50 (μM), GH4C1 cell line expressing the alpha7 nAChR, concentration-response curves. The text has this: Rat GH4C1 cells were then transfected with the rat receptor, cloned and analyzed for functional alpha7 nicotinic receptor expression employing a FLIPR assay to measure changes in intracellular calcium concentrations.
The FLIPR system allows the measurements of real time Ca^2+-concentration changes in living cells using a Ca^2+ sensitive fluorescence dye (such as Fluo4). This instrument enables the screening for agonists and antagonists for alpha 7 nAChR channels stably expressed in GH4C1 cells.
GH4C1 cells stably transfected with rat-alpha7-nAChR (see above) were used. These cells are poorly adherent and therefore pretreatment of flasks and plates with poly-D-lysine was carried out. Cells are grown in 150 cm^2 T-flasks, filled with 30 ml of medium at 37° C. and 5% CO2.
EC50 and IC50 values were calculated using the IDBS XLfit4.1 software package employing a sigmoidal concentration-response (variable slope) equation:
Y=Bottom+((Top−Bottom)/(1+((EC50/X)̂HillSlope))
Certain compounds of the present disclosure were tested using the functional FLIPR primary screening assay employing the stable recombinant GH4C1 cell line expressing the alpha7 nAChR.

By UniProt entry, the sequences of proteins in these tests, tags left out. Residues count along the entry.
UniProt Q05941, 23-502: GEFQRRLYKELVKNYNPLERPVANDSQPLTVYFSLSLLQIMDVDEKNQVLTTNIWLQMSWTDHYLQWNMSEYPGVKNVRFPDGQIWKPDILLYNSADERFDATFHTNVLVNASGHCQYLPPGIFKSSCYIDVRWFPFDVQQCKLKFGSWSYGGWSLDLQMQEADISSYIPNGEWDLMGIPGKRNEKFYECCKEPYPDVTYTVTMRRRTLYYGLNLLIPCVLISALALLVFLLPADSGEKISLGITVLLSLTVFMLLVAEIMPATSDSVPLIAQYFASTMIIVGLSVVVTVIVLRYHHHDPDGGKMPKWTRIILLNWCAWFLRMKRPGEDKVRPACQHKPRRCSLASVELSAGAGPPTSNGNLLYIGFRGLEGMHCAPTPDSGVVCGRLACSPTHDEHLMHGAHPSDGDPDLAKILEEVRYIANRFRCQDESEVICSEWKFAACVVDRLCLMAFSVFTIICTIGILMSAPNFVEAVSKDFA

As a reminder, the EC50 is the concentration at which the effect is half-maximal. Low values mean a more potent agent, high ones a less potent agent. The molecule `O=C(NCCCCN1CCCCC1)Nc1ccc(-c2ccc(F)cc2)nc1` gave a concentration for a half-maximal effect (EC50) of 0.03 µM.

These data come from patent US20100016343A1 (WYETH, priority 2008, published 2010).
